Source: the NIST ThermoML archive (doi:10.1016/j.jct.2015.05.014)

Assay: activity coefficient (dimensionless); of the first substance listed, at infinite dilution; xn = mol fraction of the nth substance listed
Conditions: 100 kPa, Liquid, Chromatography, x1 = 0

CCCCOCCCC [dibutyl ether] + CC(O)C(=O)[O-].CC[N+]1(C)CCCC1
Conditions | activity coefficient
308.15 K | 142
318.15 K | 133
328.15 K | 125
338.15 K | 118
348.15 K | 110
358.15 K | 105
368.15 K | 98.8
